# Earlier results as cited in patent US12158464B2, “Methods for modeling disease tissue using three-dimensional tissue systems” (priority 2013, dated 2024).
# System: mammalian venules
# Settings: not told; cited from earlier work
substance,measurement,value
FITC-Dextran,permeability of mammalian venules in vivo,(0.15±0.05)×10^−6 cm s^−1
